Experimental data taken from US20080019909A1, “Modulation of Programmed Necrosis” (priority 2003, published 2008).

Tested on: caspase-8 -/- J3.2 cells
Assay: TNF cytotoxic assay (cell loss by PI exclusion on FACS), caspase-8 -/- J3.2 cells
Details: caspase 8 -/- J3.2 cells transfected with plasmids; 12 hours stimulation with TNF

Q: For “XLAP: known apoptosis inhibitor, transfected plasmid”, which “TNF-induced programmed necrosis, transfected apoptosis inhibitors” value is on record?
A: The value was “failed to confer protection”.
